Laboratory results as given in ChEMBL document CHEMBL5634157, “Design and synthesis of certain 7-Aryl-2-Methyl-3-Substituted Pyrazolo{1,5-a}Pyrimidines as multikinase inhibitors” (Eur J Med Chem, 2023).
Activity calls are given as the source filed them. The calls are words filed in the database; no cut-off is given here.

Biological target: T1, Activin receptor type-1 (Homo sapiens) (UniProt Q04771)
T1 sequence (whole entry): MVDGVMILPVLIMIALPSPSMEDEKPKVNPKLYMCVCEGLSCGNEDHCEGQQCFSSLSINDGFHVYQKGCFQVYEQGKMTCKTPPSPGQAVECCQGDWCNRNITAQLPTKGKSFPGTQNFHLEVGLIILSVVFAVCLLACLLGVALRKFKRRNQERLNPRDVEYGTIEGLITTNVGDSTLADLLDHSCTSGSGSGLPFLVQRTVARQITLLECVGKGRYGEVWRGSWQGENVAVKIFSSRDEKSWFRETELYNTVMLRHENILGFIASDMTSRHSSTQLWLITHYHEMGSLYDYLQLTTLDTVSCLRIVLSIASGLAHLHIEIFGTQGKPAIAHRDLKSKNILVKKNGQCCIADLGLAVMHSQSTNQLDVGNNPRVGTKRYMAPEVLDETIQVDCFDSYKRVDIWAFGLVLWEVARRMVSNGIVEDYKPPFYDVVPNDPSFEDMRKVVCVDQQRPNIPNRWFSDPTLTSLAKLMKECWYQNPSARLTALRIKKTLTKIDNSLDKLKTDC
Experiment: Inhibition of ALK2 in human EKVX cells by Western blotting analysis
Format: cell-based

## COc1ccc(-c2ccnc3c(-c4noc(C)n4)c(C)nn23)cc1
  inhibition: Active
